Measured affinities in a library of Ab-14 light chain variants

Source: Li et al. 2023 (doi:10.1038/s41467-023-39022-2), MIT Lincoln Laboratory and A-Alpha Bio; data file from the FLAb repository.

Target: peptide PDVDLGDISGINAS, taken from heptad repeat 2 (HR2) of SARS-CoV-2 spike.

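The starting antibody came from a phage panning campaign against this peptide. Designed CDR sequences, proposed from the first random library and measured here. Group labels follow the data file (Ctrl: baseline library sampled from a position-specific scoring matrix, with some repeated check sequences; En: ensemble of fine-tuned language models; GP: Gaussian process model; HC: hill climbing; Gen: genetic algorithm; Gibbs: Gibbs sampling; a sequence that several methods proposed may carry one label only). The assay is AlphaSeq: two haploid yeast populations carry antibody and antigen on their surface. Binding brings cells together so that they mate, and sequencing counts the barcode pairs among the diploids. Scores were corrected for input abundance and mapped to Kd with protein pairs of known affinity run in the same pool. Each pool was mated in six replicate cultures.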

Parent scFv Ab-14: VH joined to VL by a 15-residue (Gly4Ser)3 linker. Changes lie in the light chain CDRs alone.
VH: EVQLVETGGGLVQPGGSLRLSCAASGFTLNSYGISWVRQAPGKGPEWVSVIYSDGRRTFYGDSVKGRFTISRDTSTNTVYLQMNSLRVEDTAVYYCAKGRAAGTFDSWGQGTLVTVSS
VL: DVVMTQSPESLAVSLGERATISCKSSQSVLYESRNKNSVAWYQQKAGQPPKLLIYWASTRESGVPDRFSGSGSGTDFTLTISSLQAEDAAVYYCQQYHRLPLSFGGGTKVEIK

The parent's light chain CDRs are KSSQSVLYESRNKNSVA, WASTRES, QQYHRLPLS; each variant's own CDRs replace them letter for letter.
Each Kd is an estimate from the mating assay, the geometric mean of the replicates in which the pair was seen; lower is stronger.
Where no diploid with the target was found in any replicate, the entry reads "no signal": below detection, most likely a poor binder, though not proof of it.
Three control strains display no target. For all light chain designs, 4% of the pairings with them gave a signal, with a median of 430 nM and one signal in twenty below 38 nM, so weak values seen in few replicates may be background.

| CDR-L1 | CDR-L2 | CDR-L3 | group | apparent Kd | detected |
|---|---|---|---|---|---|
| KSSISYLYESENKNSVA | AASYRES | QQYHRLPLS | GP_HC | 9.3 nM | 6 of 6 |
| KLQEQSLYWSRNKNSVA | EASTRES | QQYHRLPLS | GP_Gibbs | 1.3 nM | 6 of 6 |
| KISQMVNFESTHINAVA | QMSTREE | QQYFRLPLS | En_HC | 3.7 nM | 6 of 6 |
| KMSQSELYESRNKNSVA | EASQRES | QQYHRLPLS | GP_Gen | 790 pM | 6 of 6 |
| KLSMTSEMEHVNRNSVA | ELVTRMS | QQYNRLPLS | En_Gen | 11 nM | 6 of 6 |
| TISGLIMMPSRNKNSVA | NTSTRYQ | QQYHRLPLS | En_HC | no signal | 0 of 6 |
| SLGLATMLEEYARNSVA | NNSTRES | QQYDRLPLS | En_Gen | 20 µM | 2 of 6 |
| AISMHAFYGYRDENGIA | GADVRAK | QQYYRLPLT | En_Gibbs | 3.9 nM | 6 of 6 |
| KSMYSCLGESRNCNSVA | SASTREL | QQYHRLPLS | GP_Gibbs | 1.4 nM | 6 of 6 |
| MISQLYNMGSFAINSVA | QASMRNA | QQYDRLPLI | En_Gen | 39 nM | 6 of 6 |
| KLSQSDGGESRNKNSVA | HASCRCS | QQYHRLPLS | GP_Gibbs | 8.9 nM | 6 of 6 |
| MVSQLMLWGLHYKNSIA | EAVTRLN | QQYDRLPLF | En_Gen | 190 nM | 2 of 6 |
| KSSTSVLYESRNKNSVA | WASTRVS | QQYHRLGLS | Ctrl | 470 nM | 2 of 6 |
| KSSQSVPYESENKNSVA | EASQRES | QQYHRLPLS | GP_HC | 2.2 nM | 6 of 6 |
| MISQVMNTLTRNGQNVA | DLQNRED | QQYFRLPLS | En_Gen | 8.0 nM | 6 of 6 |
| KFSQSDDYEDRNKNSVA | SGSTRSS | QQYHRLPLS | GP_Gibbs | 1.8 nM | 6 of 6 |
| HLSDSVLYESRNKNSVA | WASTRES | QQYHRLPLS | GP_HC | 700 pM | 6 of 6 |
| KSSYSVLYESVNKNNVA | RASTRES | QQYHRTPLS | Ctrl | 51 nM | 6 of 6 |
| KSMQGVLYESRNKNSVA | GASTRES | QQYHRLPLH | GP_HC | 1.2 nM | 6 of 6 |
| HFSPSVLYESRNKNSVA | NASTRES | QQYHRLPLQ | GP_HC | 370 pM | 6 of 6 |
| KLDQSDQGESRNKNAVA | QASTREI | QQYHRLPLS | GP_Gibbs | 780 pM | 6 of 6 |
| KSSQSVLYESRNKNSVA | WASTRES | QCYHRLPLS | Ctrl | no signal | 0 of 6 |
| VSSQSFLYESRNKNSVA | WASTRES | QQYHRLPLS | Ctrl | 16 nM | 6 of 6 |
| KIGGTLNQLMHKKNNVA | DLVERET | QQYFRLPLS | En_Gen | 1.5 nM | 6 of 6 |
| KISQSVLYESRNKNSVA | WASTRSS | QQYHRLPLS | Ctrl | 2.4 nM | 6 of 6 |
| MFSQGVMVGWLTRNSVA | NSSTRES | QQYERLPLS | En_HC | 3.9 nM | 6 of 6 |
| KLQQSELYESRNKNSVA | HASQRES | QQYHRLPLS | GP_Gen | 7.4 nM | 6 of 6 |
| KVSQSQLYESRNKNSVA | EASQRES | QQYHRLPLS | GP_Gen | 370 pM | 6 of 6 |
| KLQQSWLYESRNKNSVA | NASTRSS | QQYHRLPLS | GP_Gen | 860 pM | 6 of 6 |
| KLSQYVGGESRNKSSLA | DNDTRES | QQYHRLPLS | En_HC | 8.0 nM | 6 of 6 |
| HISQSVGMTSFNKNSVA | ENNTRED | QQYDRLPLS | En_HC | 820 nM | 2 of 6 |
| KSEQSSLWASRNLNSVA | HASRRES | QQYHRLPLS | Ctrl | 19 nM | 6 of 6 |
| KSSQSVLYESRNKNSVA | NASTRES | QQYHPLPLS | Ctrl | 33 nM | 6 of 6 |
| KLSSVTGHMSMAKNNVA | EMVTREK | QQYNRLPLA | En_Gen | 1.4 nM | 6 of 6 |
| VLQQSELYESRNKNSVA | DASKREE | QQYHRLPLS | GP_Gibbs | 260 pM | 6 of 6 |
| KISQVFMMTGKAKNSVA | NAYTRVQ | QQYHRLPLS | En_HC | 2.1 nM | 6 of 6 |
| KSSQSVLYEDRNSNSVA | DASTRNS | QQYHRPPLS | Ctrl | 11 nM | 6 of 6 |
| MMSYGWLLGSRNKRNVA | DRETRES | QQYDRLPLS | En_HC | 1.8 nM | 6 of 6 |
| MVSQLMLWGLHAKYSIA | EAVTRLN | QQYDRLPLI | En_Gen | no signal | 0 of 6 |
| KSSPQVLYEDRNKNSVA | HASTRES | FSYWVLPLS | Ctrl | 1.2 nM | 6 of 6 |
| KLSQSELYEDRNKNSVA | NASQRLS | QQYHRLPLS | GP_Gen | 1.1 nM | 6 of 6 |
| KLGAATRFESSNKANIA | NNSTREE | QQYHRLPLS | En_HC | 14 nM | 6 of 6 |
| KISQTFNVGTKNKNSLA | EMSTREG | QDYHRLPLS | En_HC | 8.4 nM | 1 of 6 |
| KLPQKWNYESRNKNNVA | SASCRES | QQYHRLPLS | GP_Gibbs | 1.5 nM | 6 of 6 |
| KSSQSVMYESRNKNSVA | WASTRAS | QQYHRLPLS | Ctrl | 93 nM | 6 of 6 |
| KSPQGVLYESRNWNSVA | GASTRES | QQYHRLPLS | GP_HC | 1.1 nM | 6 of 6 |
| KLRQSTHIESFNKNNVA | EMTTREA | QSYDRLPLS | En_HC | 8.5 nM | 6 of 6 |
| KSSQTVLNESRNKNSVA | WASTRES | QQYHRLPLS | Ctrl | 1.4 nM | 6 of 6 |
| KIHMGWEMGSRTNDNIA | EANLRFS | QQYNRLPLF | En_Gibbs | 3.4 nM | 6 of 6 |
| KVSQSGLYGSRNKWSVA | NASTRES | QQYHRLPLD | GP_Gibbs | 120 nM | 6 of 6 |
| KLSQSVKMESRNKNSVA | DASTRES | QQYHRLPLS | GP_HC | 1.0 nM | 6 of 6 |
| TLYGLSMSMAKNKNNVA | EMTTRED | QQYDRLPLI | En_Gen | 2.6 nM | 6 of 6 |
| KSSQSVLRNSRNENSVA | WASTRES | QQYHRLPIS | Ctrl | 200 nM | 1 of 6 |
| TIAQSMLYLSNLKNSIA | QAETRED | QQYHRLPIM | En_HC | 4.1 nM | 6 of 6 |
| KMKQSVDGLDRNKNSVA | QASTREM | QQYHRLPLS | GP_Gibbs | 950 pM | 6 of 6 |
| QLRDAIWAEGMNKQSIA | ANEVSKD | QQYNRLPLS | En_Gibbs | 190 nM | 5 of 6 |
| NLGGEDFNDTYGMKAVA | DVSEVGE | QHYSRLPLS | En_Gibbs | 5.6 nM | 6 of 6 |
| KLSQSTLYDSQNKNSVA | WASTRES | QQYHRLPLS | GP_HC | 11 nM | 6 of 6 |
| KLPQSVLYESRNKNSVA | NASTRED | QSYHRLPLS | GP_HC | 900 pM | 6 of 6 |
| KISMMYRYEQQNSSSIA | EVSTRLN | QSYHRLPLS | En_HC | no signal | 0 of 6 |
| KIQSHLSQSFASWNNIA | DRVQSAE | QQYNRLPLV | En_Gibbs | 1.6 nM | 6 of 6 |
| KHLQSVLYESRDKNSVA | HASTRED | QQYHRLPLS | GP_HC | 1.7 nM | 6 of 6 |
| KLSQSNLYESRNKNSVA | NASQRES | QQYHRLPLS | GP_Gen | 280 pM | 6 of 6 |
| KISFQYRYEQLSKNSIA | EAQTRLK | QQYHRLPLE | En_HC | 5.7 nM | 6 of 6 |

9 of these entries, quoted again:

{"CDR-L1": "KLSQSTLYDSQNKNSVA", "CDR-L2": "WASTRES", "CDR-L3": "QQYHRLPLS", "group": "GP_HC", "apparent Kd": "11 nM", "detected": "6 of 6"}
{"CDR-L1": "VSSQSFLYESRNKNSVA", "CDR-L2": "WASTRES", "CDR-L3": "QQYHRLPLS", "group": "Ctrl", "apparent Kd": "16 nM", "detected": "6 of 6"}
{"CDR-L1": "KSSISYLYESENKNSVA", "CDR-L2": "AASYRES", "CDR-L3": "QQYHRLPLS", "group": "GP_HC", "apparent Kd": "9.3 nM", "detected": "6 of 6"}
{"CDR-L1": "NLGGEDFNDTYGMKAVA", "CDR-L2": "DVSEVGE", "CDR-L3": "QHYSRLPLS", "group": "En_Gibbs", "apparent Kd": "5.6 nM", "detected": "6 of 6"}
{"CDR-L1": "TISGLIMMPSRNKNSVA", "CDR-L2": "NTSTRYQ", "CDR-L3": "QQYHRLPLS", "group": "En_HC", "apparent Kd": "no signal", "detected": "0 of 6"}
{"CDR-L1": "KSSQSVPYESENKNSVA", "CDR-L2": "EASQRES", "CDR-L3": "QQYHRLPLS", "group": "GP_HC", "apparent Kd": "2.2 nM", "detected": "6 of 6"}
{"CDR-L1": "KLDQSDQGESRNKNAVA", "CDR-L2": "QASTREI", "CDR-L3": "QQYHRLPLS", "group": "GP_Gibbs", "apparent Kd": "780 pM", "detected": "6 of 6"}
{"CDR-L1": "KSPQGVLYESRNWNSVA", "CDR-L2": "GASTRES", "CDR-L3": "QQYHRLPLS", "group": "GP_HC", "apparent Kd": "1.1 nM", "detected": "6 of 6"}
{"CDR-L1": "MMSYGWLLGSRNKRNVA", "CDR-L2": "DRETRES", "CDR-L3": "QQYDRLPLS", "group": "En_HC", "apparent Kd": "1.8 nM", "detected": "6 of 6"}

The authors' rule: three or more of the six replicates give a measured affinity, fewer mean a poor binder.
Values of this round are not directly comparable with the first-round values of the same sequences.